scFv variants of Ab-95 (light chain) against a SARS-CoV-2 spike peptide

Values reported by Engelhart et al. 2022, doi:10.1038/s41597-022-01779-4 (FLAb copy).

All variants were tested on one target, the spike HR2 peptide PDVDLGDISGINAS (SARS-CoV-2).

Parent: Ab-95, a human scFv built as VH, three GGGGS repeats, VL. Only the CDRs of the light chain vary.
VH: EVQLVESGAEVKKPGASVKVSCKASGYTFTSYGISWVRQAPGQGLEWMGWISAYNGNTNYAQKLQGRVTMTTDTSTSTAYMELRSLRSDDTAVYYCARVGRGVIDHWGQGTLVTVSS
VL: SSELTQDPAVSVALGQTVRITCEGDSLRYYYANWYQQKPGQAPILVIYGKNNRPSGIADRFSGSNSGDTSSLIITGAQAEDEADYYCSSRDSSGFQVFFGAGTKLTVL

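The starting antibody came from a phage panning campaign against this peptide. In library AAYL52, one, two or three CDR residues were substituted; doubles and triples were drawn at random. Affinity was read by AlphaSeq, a pooled yeast mating assay with surface-displayed partners. Mating (16 h, 30 °C) was followed by selection of diploids and sequencing of their barcodes. The ratio of observed to expected reads was calibrated, replicate by replicate, on BCL2-family standards whose Kd was known from biolayer interferometry. Each pool was mated in three replicate cultures.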

Variants are written as CDR1, CDR2 and CDR3 of the light chain (limits as in the source). Parent: EGDSLRYYYAN, GKNNRPS, SSRDSSGFQVF.
Each Kd is an estimate from the mating assay, the geometric mean of the replicates in which the pair was seen; lower is stronger.
Where no diploid with the target was found in any replicate, the entry reads "no signal": below detection, most likely a poor binder, though not proof of it.
Three control strains display no target. For library AAYL52, 28% of the pairings with them gave a signal, with a median of 8.2 µM and one signal in twenty below 800 nM, so weak values seen in few replicates may be background.

| # | CDR-L1 | CDR-L2 | CDR-L3 | apparent Kd | seen in |
|---|---|---|---|---|---|
| 1 | EGDSLRYYCAN | QKNNRPS | SVRDSSGFQVF | 3.5 µM | 3 of 3 |
| 2 | EGDSLRYYYAN | GKNNRPS | SSNESSGFQVM | 130 nM | 3 of 3 |
| 3 | EGDSLRYYYAN | GNNNLPS | SSRDSCGFQVF | 6.8 µM | 3 of 3 |
| 4 | EGDSLRYYYAN | RKNNRCS | SSRDSSGFQVF | 20 µM | 2 of 3 |
| 5 | EGISLRYYYAN | GKNNRPS | GVRDSSGFQVF | 300 nM | 3 of 3 |
| 6 | EGDSLRYYYAN | HKNNRPS | SSRWSSGFKVF | 1.3 µM | 1 of 3 |
| 7 | EGDSLRYYNRN | GKNNRPS | SSRDSFGFQVF | 11 µM | 1 of 3 |
| 8 | EGDSLRYYYDN | YKNNRPS | SSRDESGFQVF | 10 µM | 1 of 3 |
| 9 | EGDSLRYYYAN | GKNNRPS | SWKDSSGFQVF | 1.2 µM | 3 of 3 |
| 10 | EGDSLRNYYAV | GKNNRPS | SSRDSSGPQVF | 5.3 µM | 1 of 3 |
| 11 | EGDSLRYQRAN | GKNNRPS | SGRDSSGFQVF | 22 nM | 3 of 3 |
| 12 | ERDSLRYYYAN | GKNNRVA | SSRDSSGFQVF | 210 µM | 3 of 3 |
| 13 | QGSSLRYYYAN | GKNNRPS | ISRDSSGFQVF | 3.6 µM | 1 of 3 |
| 14 | EGDSLRYYYAN | GKNNRPS | SSADSDGFQPF | 440 nM | 3 of 3 |
| 15 | EGDSLRYYYAN | GMNNRPS | SSFDSSGKQVF | 40 µM | 1 of 3 |
| 16 | EGDSLRYRYAN | GKNNRPS | SSVDSSGFQHF | 160 nM | 3 of 3 |
| 17 | EGDDLRSYYAN | GYNNRPS | SSRDSSGFQVF | 3.9 µM | 3 of 3 |
| 18 | EGDSLRYYYAN | GKNNRPS | SSRKSSWFQVT | no signal | 0 of 3 |
| 19 | EMPSLRYYYAN | GRNNRPS | SSRDSSGFQVF | 2.9 µM | 3 of 3 |
| 20 | EGDSLNYIYAN | GKNNRPS | SVRDSSGFQVF | 52 nM | 3 of 3 |
| 21 | EGCSLRYYYAN | GKHNRPS | SSRDNSGFQVF | 41 µM | 2 of 3 |
| 22 | AGDSLRYYYAN | GKNNRPS | SSRDSHSFQVF | 140 nM | 3 of 3 |
| 23 | EGDSLRYNYAN | GKRNRPS | SSRDSSGFQVD | 90 nM | 3 of 3 |
| 24 | EGDSLFYYYAN | GKNNRPS | ASRDSSRFQVF | 1.4 µM | 2 of 3 |
| 25 | EGDSLRVYYAN | GKNNRPS | SSRDSSCFQVF | 2.5 µM | 3 of 3 |
| 26 | PGDSLRYYYAN | GKNNRPS | SSRDSSLFQVF | no signal | 0 of 3 |
| 27 | EGDSLRYYYAN | PKNNVPS | SSRDSSGFMVF | no signal | 0 of 3 |
| 28 | EGDSLRYYYAN | GKNNRPS | SSRDSHGFQVK | 7.4 µM | 3 of 3 |
| 29 | DGDSLRDYYAN | GKNNRPS | SSRFSSGFQVF | 170 nM | 3 of 3 |
| 30 | EGDSLRYYYAN | EKNNRPS | SSRDSEGFQVF | 69 µM | 1 of 3 |
| 31 | EGDSLRMYYAN | GKNNRPS | SARDSSGHQVF | 1.4 µM | 3 of 3 |
| 32 | EGDSLRYYYAN | GKNNRPS | SSRKSSGFQVT | 860 nM | 3 of 3 |
| 33 | EGDSLRYHYAN | GKNNRPS | SSRDSSWFQVF | 12 nM | 3 of 3 |
| 34 | EGDSLRYMHAN | GKNNRPS | HSRDSSGFQVF | 86 nM | 3 of 3 |
| 35 | NGDSLRYYYTN | GKNNRMS | SSRDSSGFQVF | 45 nM | 3 of 3 |
| 36 | EGDSLRYHYAN | DKNNRPS | SSRDSSGFQVM | 21 nM | 3 of 3 |
| 37 | EGTSLRYYYAN | GKNNRPS | DSRDSLGFQVF | no signal | 0 of 3 |
| 38 | EDDSLRYYYAN | GKNNRPN | SSADSSGFQVF | 1.2 µM | 1 of 3 |
| 39 | EGDSLRYYYSN | GKNNRPS | SSRDSVGFQRF | 370 nM | 3 of 3 |
| 40 | EGDSLRYYYAN | GKNNRPS | SSRDSSGFVVV | 34 µM | 1 of 3 |
| 41 | EGDSLRYYYAN | GKNNRTS | SSRDSSGFECF | 820 nM | 3 of 3 |
| 42 | EGDSLRYYYAN | GKNNRPS | DSRDSSGFQRF | 10 µM | 2 of 3 |
| 43 | EGDSLPYYYAN | FKNNRPS | SSRDSSGAQVF | 6.5 µM | 1 of 3 |
| 44 | EGDSWRYYYAN | GFNNRPE | SSRDSSGFQVF | no signal | 0 of 3 |
| 45 | EGDSLRYYYAN | GKNNRPS | SLRDSSVFPVF | 200 nM | 3 of 3 |
| 46 | YGDSLRYYYVN | GCNNRPS | SSRDSSGFQVF | 8.1 µM | 1 of 3 |
| 47 | EGSSVRYYYAN | GKNNRPS | SSRDSSIFQVF | no signal | 0 of 3 |
| 48 | EGDSLRYYYNN | YKNNRPS | SSRDSSGFQRF | 47 µM | 2 of 3 |
| 49 | EVDSLRYYYAA | GKLNRPS | SSRDSSGFQVF | 1.9 µM | 2 of 3 |
| 50 | EGDSLRYYYAN | GKNNSPS | SSRDSSGFQAH | 560 µM | 1 of 3 |
| 51 | EGDSLRYYLAA | GKNNFPS | SSRDSSGFQVF | no signal | 0 of 3 |
| 52 | EGDILRYYYAN | GKNNRPS | LSRDSSGFQMF | 4.6 µM | 3 of 3 |
| 53 | EGDSERYYYAN | GKNNRPS | SSRDSSFFQVG | 300 µM | 1 of 3 |
| 54 | EGDSLRYYYGN | GKNNRPS | SSRDSSYFQIF | 540 nM | 3 of 3 |
| 55 | EGDSKRYYYAN | GKNLRPS | SSRDSSGFQGF | 21 µM | 1 of 3 |
| 56 | EGDSLRYYYSG | GKYNRPS | SSRDSSGFQVF | 6.5 µM | 3 of 3 |
| 57 | FGDSLRYYYAN | GKKNRPS | SFRDSSGFQVF | no signal | 0 of 3 |
| 58 | EGDSLRYCWAN | GKNNRQS | SSRDSSGFQVF | 1.3 µM | 3 of 3 |
| 59 | EGDSLVYFYAN | GKNNRPS | SSRNSSGFQVF | 17 µM | 2 of 3 |

The 3 strongest on average among those seen in every replicate, once more:

CDR-L1,CDR-L2,CDR-L3,apparent Kd,seen in
EGDSLRYHYAN,GKNNRPS,SSRDSSWFQVF,12 nM,3 of 3
EGDSLRYHYAN,DKNNRPS,SSRDSSGFQVM,21 nM,3 of 3
EGDSLRYQRAN,GKNNRPS,SGRDSSGFQVF,22 nM,3 of 3